scFv variants of Ab-14 (light chain) against a SARS-CoV-2 spike peptide

Data: MIT Lincoln Laboratory AlphaSeq set, Engelhart et al. 2022, doi:10.1038/s41597-022-01779-4, as distributed in FLAb.

Antigen: PDVDLGDISGINAS, a 14-residue peptide of the SARS-CoV-2 spike HR2 region.

The variants keep the heavy chain, the linker and the frameworks of Ab-14 (scFv order VH, the linker GGGGSGGGGSGGGGS, VL).
VH: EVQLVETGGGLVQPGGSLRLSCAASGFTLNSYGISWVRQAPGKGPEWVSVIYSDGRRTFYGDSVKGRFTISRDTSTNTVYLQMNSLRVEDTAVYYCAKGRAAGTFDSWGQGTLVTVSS
VL: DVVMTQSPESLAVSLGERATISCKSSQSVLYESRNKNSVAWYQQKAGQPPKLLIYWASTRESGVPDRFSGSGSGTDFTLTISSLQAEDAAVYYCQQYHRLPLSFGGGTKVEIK

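Library AAYL50 holds single substitutions and randomly drawn double and triple substitutions in the CDRs. Affinity was read by AlphaSeq, a pooled yeast mating assay with surface-displayed partners. After mating in shaken culture at 30 °C for 16 h, diploids were selected and their barcode pairs sequenced. A regression on co-assayed BCL2-family reference pairs converts the normalised counts of each replicate to an apparent Kd. Mating was done three times.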

Positions count from residue 1 of the parent VL; K24P puts P in place of K. Numbers give log10(Kd / nM), so 0 is 1 nM and 3 is 1 µM. Smaller is tighter. A pair that was not seen in that replicate is written "ND"; this usually means weak binding, but a binder can also be missed. Nonspecific signal, from three strains lacking the peptide, appeared in 18% of pairings of library AAYL50, centred on 4.19 (5% of these signals below 2.99); values are not corrected for it. For each scFv, signals with the empty controls are counted beside the result, with their mean in brackets.

changes | log10 Kd, replicates | signal with controls
K24P Q27D T59C | 3.94 3.22 ND | 2/9 (4.93)
W56P T59E | ND ND ND | 0/9
Q27P T59D Y97V | ND 3.93 ND | 1/9 (4.41)
S33N S38N T59G | 5.28 2.26 ND | 1/9 (3.58)
S26G S33E L100V | 0.07 0.78 0.55 | 0/9
L30Q S33V W56Q | 0.54 0.73 0.78 | 1/9 (2.71)
W56S A57Y Q95D | ND ND ND | 0/9
L30F S58P L100G | ND 5.26 4.79 | 4/9 (4.37)
S33E E61D Y97K | 0.79 0.87 0.89 | 2/9 (5.36)
N35F | ND 3.11 ND | 1/9 (3.28)
S26W V39H A57T | 3.22 ND 3.44 | 0/9
K24S Y31M N35T | 1.63 1.96 2.40 | 0/9
L30A E32Q Q95E | 2.24 2.26 2.23 | 3/9 (4.12)
N37R T59N E61V | 1.38 1.48 1.33 | 0/9
S26Q N37E E61N | 1.55 1.83 1.72 | 1/9 (4.11)
S25R H98W L100F | 2.31 1.97 2.41 | 1/9 (4.18)
S26F T59D L102A | 4.21 4.19 ND | 2/9 (3.74)
V39W Q95W L100E | 4.95 3.22 2.61 | 0/9
Q95D L102D S103P | ND ND ND | 1/9 (1.54)
S38R Y97P S103P | ND ND ND | 0/9
W56K A57Q L100S | 4.60 ND 4.01 | 0/9
S26T Q27W H98I | ND ND ND | 2/9 (4.23)
K24G Y31A H98G | 0.54 0.56 0.61 | 2/9 (3.88)
R34N T59I L100D | 0.15 0.45 0.33 | 2/9 (3.86)
S33C V39W A40P | ND ND ND | 0/9
S26K A40I | 4.33 ND ND | 0/9
Y97E H98F S103V | ND ND ND | 1/9 (4.38)
L30Y R99L L102Q | ND 3.79 ND | 3/9 (4.23)
S28Y S62L L100H | ND 3.71 ND | 0/9
V39R E61Q S103Y | ND ND ND | 0/9
S25E R60P S103Q | 3.50 2.88 4.61 | 3/9 (3.75)

Top 5 of the variants detected in all replicates, tightest first:

| changes | log10 Kd, replicates | signal with controls |
|---|---|---|
| R34N T59I L100D | 0.15 0.45 0.33 | 2/9 (3.86) |
| S26G S33E L100V | 0.07 0.78 0.55 | 0/9 |
| K24G Y31A H98G | 0.54 0.56 0.61 | 2/9 (3.88) |
| L30Q S33V W56Q | 0.54 0.73 0.78 | 1/9 (2.71) |
| S33E E61D Y97K | 0.79 0.87 0.89 | 2/9 (5.36) |